Data reported in patent publication US20240269094A1, “Treatment of canine dermatitis and skin irritation” (priority 2023, published 2024).

The chains behind the UniProt entries cited, without tags or fusion partners.
UniProt Q8R4D5, whole entry: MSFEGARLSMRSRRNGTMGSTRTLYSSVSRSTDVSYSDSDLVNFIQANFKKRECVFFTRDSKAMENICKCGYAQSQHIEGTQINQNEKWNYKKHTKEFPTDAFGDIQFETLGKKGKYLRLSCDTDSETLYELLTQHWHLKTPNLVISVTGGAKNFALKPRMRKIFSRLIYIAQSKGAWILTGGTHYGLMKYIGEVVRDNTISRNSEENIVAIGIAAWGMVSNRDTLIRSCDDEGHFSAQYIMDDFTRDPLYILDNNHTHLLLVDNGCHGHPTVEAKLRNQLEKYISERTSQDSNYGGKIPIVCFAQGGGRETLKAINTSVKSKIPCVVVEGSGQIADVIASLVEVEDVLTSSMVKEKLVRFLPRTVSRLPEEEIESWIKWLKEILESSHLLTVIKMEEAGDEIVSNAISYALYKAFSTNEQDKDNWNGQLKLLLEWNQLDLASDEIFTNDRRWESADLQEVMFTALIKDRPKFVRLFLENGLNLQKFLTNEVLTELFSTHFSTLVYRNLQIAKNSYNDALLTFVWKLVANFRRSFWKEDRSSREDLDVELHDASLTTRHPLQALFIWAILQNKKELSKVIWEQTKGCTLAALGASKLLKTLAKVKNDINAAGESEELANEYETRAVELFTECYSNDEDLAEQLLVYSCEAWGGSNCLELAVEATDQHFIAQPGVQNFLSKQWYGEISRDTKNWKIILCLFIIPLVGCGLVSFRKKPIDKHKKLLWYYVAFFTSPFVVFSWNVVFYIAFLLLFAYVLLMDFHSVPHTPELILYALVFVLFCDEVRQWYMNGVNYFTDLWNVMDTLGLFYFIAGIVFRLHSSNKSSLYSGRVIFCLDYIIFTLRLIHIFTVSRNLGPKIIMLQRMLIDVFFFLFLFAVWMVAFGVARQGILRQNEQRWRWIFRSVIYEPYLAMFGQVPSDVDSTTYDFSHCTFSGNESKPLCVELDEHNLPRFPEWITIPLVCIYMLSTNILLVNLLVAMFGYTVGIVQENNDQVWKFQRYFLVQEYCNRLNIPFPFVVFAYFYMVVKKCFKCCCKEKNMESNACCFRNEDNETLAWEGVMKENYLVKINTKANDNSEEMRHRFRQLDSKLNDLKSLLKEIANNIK

Tests used:
[1] = target: TRPM8 (UniProt Q8R4D5); settings: Ref. 3 (Bodding et al., 2007); cited from earlier work
[2] = Solubility in formulation solvents; settings: 1,2-propanediol solvent, room temperature

CC1CCC(C(C)C)C(C(=O)OCC(O)CO)C1 (centres unmarked)
EC50 [1]: 5.6 µM
solubility [2]: not as soluble as FEMA 4557
